Read-outs that look alike come from different tables or passages of the source.
Key:
human α2c-AR = target: T1, human α2c-AR (Homo sapiens, UniProt P18825); assay: [3H]Rauwolscine equilibrium competition binding, human α2c-AR expressed in CHO cells; settings: summary of Table 2
T1 construct: expressed in transfected cells

The chains behind the UniProt entries cited, without tags or fusion partners.
UniProt P18825, whole entry: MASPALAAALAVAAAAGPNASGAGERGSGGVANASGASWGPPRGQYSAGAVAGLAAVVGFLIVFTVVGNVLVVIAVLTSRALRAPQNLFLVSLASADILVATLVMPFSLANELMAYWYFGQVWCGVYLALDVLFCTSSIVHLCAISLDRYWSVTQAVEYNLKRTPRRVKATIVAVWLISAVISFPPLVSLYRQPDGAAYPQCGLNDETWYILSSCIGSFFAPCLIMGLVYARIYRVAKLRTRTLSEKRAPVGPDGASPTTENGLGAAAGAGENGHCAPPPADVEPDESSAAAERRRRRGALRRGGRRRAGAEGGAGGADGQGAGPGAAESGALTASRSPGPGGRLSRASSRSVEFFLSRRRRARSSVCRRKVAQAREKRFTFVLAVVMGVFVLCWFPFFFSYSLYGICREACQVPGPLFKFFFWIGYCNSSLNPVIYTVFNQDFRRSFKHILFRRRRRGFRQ
UniProt P08913, whole entry: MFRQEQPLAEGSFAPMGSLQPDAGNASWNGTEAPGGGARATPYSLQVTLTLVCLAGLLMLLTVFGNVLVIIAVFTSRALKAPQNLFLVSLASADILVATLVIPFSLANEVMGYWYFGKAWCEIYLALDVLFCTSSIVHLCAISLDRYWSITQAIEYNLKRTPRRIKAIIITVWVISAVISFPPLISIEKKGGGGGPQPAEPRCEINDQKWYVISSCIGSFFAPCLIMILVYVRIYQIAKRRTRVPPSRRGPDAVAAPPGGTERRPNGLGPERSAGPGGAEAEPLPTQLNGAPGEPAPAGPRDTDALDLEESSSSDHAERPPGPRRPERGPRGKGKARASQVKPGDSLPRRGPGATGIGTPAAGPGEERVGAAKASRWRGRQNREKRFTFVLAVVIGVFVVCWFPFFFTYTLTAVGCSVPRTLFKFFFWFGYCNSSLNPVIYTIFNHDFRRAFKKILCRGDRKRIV
UniProt P18089, whole entry: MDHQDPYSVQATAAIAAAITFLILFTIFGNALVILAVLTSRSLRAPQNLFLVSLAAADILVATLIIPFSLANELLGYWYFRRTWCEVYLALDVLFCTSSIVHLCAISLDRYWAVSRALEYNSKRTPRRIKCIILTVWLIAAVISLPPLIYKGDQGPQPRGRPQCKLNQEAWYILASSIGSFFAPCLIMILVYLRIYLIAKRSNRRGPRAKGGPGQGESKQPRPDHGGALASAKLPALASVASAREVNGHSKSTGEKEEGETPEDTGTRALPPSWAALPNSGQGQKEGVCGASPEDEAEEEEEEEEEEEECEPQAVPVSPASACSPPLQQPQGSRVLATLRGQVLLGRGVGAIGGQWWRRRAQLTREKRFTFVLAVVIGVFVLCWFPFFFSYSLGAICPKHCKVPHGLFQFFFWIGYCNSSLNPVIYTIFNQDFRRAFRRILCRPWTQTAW

human α2a-AR = target: T2, human α2a-AR (Homo sapiens, UniProt P08913); assay: [3H]Rauwolscine equilibrium competition binding, human α2a-AR expressed in CHO cells; settings: Table 1, ratio of Ki values
T2 construct: expressed in transfected cells

human α2b-AR = target: T3, human α2b-AR (Homo sapiens, UniProt P18089); assay: [3H]Rauwolscine equilibrium competition binding, human α2b-AR expressed in CHO cells
T3 construct: expressed in transfected cells

[1] = human α2b-AR in CHO cells, [3H]rauwolscine 2.54 nM, mean ± SEM of four to nine experiments, read-out: Ki = SEM (nM) α2b-AR
[2] = read-out: pKi α2b-AR (converted)

| Compound | selectivity for the human α2c-AR subtype (in words) (human α2c-AR) | α2a/α2b Selectivity = Ki(α2b)/Ki(α2a) (human α2a-AR) | Ki (human α2b-AR; [1]) [nM] | Ki (human α2b-AR; [2]) [nM] |
| --- | --- | --- | --- | --- |
| O=C(NCCNC(=O)[C@@H]1[C@H]2C[C@H]3c4[nH]c5ccccc5c4CCN3C[C@@H]2CC[C@@H]1O)[C@@H]1[C@H]2C[C@H]3c4[nH]c5ccccc5c4CCN3C[C@@H]2CC[C@@H]1O [Compound 3a] | potent and selective ligands | 57.2 | – | – |
| O=C(NCCCCNC(=O)[C@@H]1[C@H]2C[C@H]3c4[nH]c5ccccc5c4CCN3C[C@@H]2CC[C@@H]1O)[C@@H]1[C@H]2C[C@H]3c4[nH]c5ccccc5c4CCN3C[C@@H]2CC[C@@H]1O [Compound 3c] | potent and selective ligands | 12.3 | – | – |
| O=C(NCCCCCCNC(=O)[C@@H]1[C@H]2C[C@H]3c4[nH]c5ccccc5c4CCN3C[C@@H]2CC[C@@H]1O)[C@@H]1[C@H]2C[C@H]3c4[nH]c5ccccc5c4CCN3C[C@@H]2CC[C@@H]1O [Compound 3e] | – | 123.1 | – | – |
| O=C(NCCCCCNC(=O)[C@@H]1[C@H]2C[C@H]3c4[nH]c5ccccc5c4CCN3C[C@@H]2CC[C@@H]1O)[C@@H]1[C@H]2C[C@H]3c4[nH]c5ccccc5c4CCN3C[C@@H]2CC[C@@H]1O [Compound 3d] | – | 77.6 | 134 ± 38.1 | 282 |
| O=C(NCCCCCCCNC(=O)[C@@H]1[C@H]2C[C@H]3c4[nH]c5ccccc5c4CCN3C[C@@H]2CC[C@@H]1O)[C@@H]1[C@H]2C[C@H]3c4[nH]c5ccccc5c4CCN3C[C@@H]2CC[C@@H]1O [Compound 3f] | – | 31.7 | 27.6 ± 4 | 57.5 |
